Consider two molecules from PubChem BioAssay AID2306 (GlaxoSmithKline (GSK), 2010).

This is a selection; strong and weak results do not stand in their true shares. Active and inactive are the calls of the source. No rule for the calls is given here.

The assay can be described thus: inhibition of 3D7 malaria parasite growth – strain 3D7 (AID 2306).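 Also: 0% = DMSO wells and 100% = chloroquine plus artemisinin control wells.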 The conditions noted are these: P. falciparum 3D7 erythrocytic growth, LDH absorbance, 72 h; at 2 µM; hits give high values.
Take `CCN1CCCC(OC(=O)C(O)(c2ccc3c(c2)OCO3)c2ccc3c(c2)OCO3)C1` (configuration not stated): the growth inhibition was active: 98%.

With `CCN1CCCC1COC(=O)C(O)(c1ccc2c(c1)OCO2)c1ccc2c(c1)OCO2` (configuration not stated), the growth inhibition was active: 97%.
